Biological target: human recombinant KAT-II (Homo sapiens (Human), UniProt Q8N5Z0)
Assay: KAT-II inhibitory test
Conditions: read-out: KAT-II inhibitory test IC50, 3.0 μmol/L kynurenine, 37° C. for 1 hr, kynurenic acid by HPLC
Procedure: The compounds described in the above-mentioned Examples were used for the KAT-II inhibitory test.
Human recombinant KAT-II was prepared as follows.
His tag and maltose binding protein tag were added to the N-terminal of a gene encoding human KAT-II (Genbank accession number: AF481738.1), and the obtained gene was incorporated into pET32 (Merck Nihon Millipore), which is an Escherichia coli expression vector. Human recombinant KAT-II produced by BL21(DE3) Escherichia coli (Merck Nihon Millipore, 69450) transformed using the plasmid was purified using an amylose resin column (New England Biolabs, #800-21 L).
The inhibitory action of the test compound on human recombinant KAT-II was determined by the following method. […]
The resultant kynurenic acid was quantified as follows by high performance liquid chromatography. An enzyme reaction mixture was separated by an octadecylsilane reversed-phase column (SC-50DS, Eicom Corporation; mobile phase: 250 mmol/L zinc acetate, 50 mmol/L sodium acetate, and 5.0% acetonitrile (pH 6.2)) incubated at 30° C., and kynurenic acid was quantified using a fluorescence detector (RF-20Axs, Shimadzu Corporation) at excitation wavelength 354 nm, detection wavelength 460 nm. […]

The chains behind the UniProt entries cited, without tags or fusion partners. Residues count along the entry.
UniProt Q8N5Z0, 30-425 limits assumed: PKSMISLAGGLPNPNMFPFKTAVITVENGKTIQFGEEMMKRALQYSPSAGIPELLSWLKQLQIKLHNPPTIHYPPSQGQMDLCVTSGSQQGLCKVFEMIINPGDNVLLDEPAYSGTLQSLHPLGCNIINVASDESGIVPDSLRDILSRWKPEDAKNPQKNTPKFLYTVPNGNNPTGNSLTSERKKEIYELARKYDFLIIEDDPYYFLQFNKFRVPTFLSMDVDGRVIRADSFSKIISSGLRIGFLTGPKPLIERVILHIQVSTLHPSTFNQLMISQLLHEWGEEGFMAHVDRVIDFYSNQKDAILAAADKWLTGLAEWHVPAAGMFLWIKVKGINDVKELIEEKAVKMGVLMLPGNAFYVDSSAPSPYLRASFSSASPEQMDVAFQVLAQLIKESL

IC50: 0.77 µM
SMILES: COC1(c2cnc3nc(N4CCC[C@@H]4C(=O)NCc4ccccc4)sc3c2)COC1

— patent publication US10793582B2, “Bicyclic heterocyclic compound” (MITSUBISHI TANABE PHARMA CORPORATION, priority 2015, dated 2020)
